This note sets out measurements from US20250099952A1, “MICROFLUIDIC DEVICE AND USES THEREOF” (CASE WESTERN RESERVE UNIVERSITY, priority 2019, published 2025).

The data set relates to RBCs. The conditions noted are these: 3 h at 37° C. incubation with 5 μM and 50 μM mercuric ion. From the text:
Mercury is a toxic heavy metal that binds to RBC membranes with high affinity and results in RBC hemolysis. Mercuric ions induce membrane conformational changes and impair RBC deformability.

For the substance mercuric ion, the “RBC morphology by scanning electron microscopy” value is “underwent morphology changes and turned into echinocytes”.
